## Experimental water solubility values from OPERA 2.9

Values as listed in the OPERA 2.9 repository of K. Mansouri.

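OPERA's authors assembled the values from existing databases and did not measure them anew. One number stands for a compound and property, with no spread given. Method and conditions are not stated for these values. Where a salt, mixture or single isomer is drawn, the source does not say that exactly this form was tested. Unmarked limits or estimates from the upstream databases cannot be ruled out.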

Solubility in water is on a log10 molar scale (set defined at 25 °C). "n/a" marks a cell with nothing listed here.

SMILES,name,log solubility (log10 mol/L)
c1cc(OCC2CO2)c2ccc(OCC3CO3)cc2c1 (centres undefined),"Oxirane, 2,2'-[1,6-naphthalenediylbis(oxymethylene)]bis-",-3.919
CC(C)[C@H](N)C(=O)OCC(CO)OCn1cnc2c(=O)nc(N)[nH]c21 (stereo not given in full),Valganciclovir,-1.869
CC(C)CCCC(C)CCO (centres undefined),"3,7-Dimethyloctan-1-ol",-3.393
CC(C)(O)CCc1ccccc1,2-Methyl-4-phenylbutan-2-ol,-1.556
OCCN1CCN(CCCN2c3ccccc3Sc3ccc(C(F)(F)F)cc32)CC1,Fluphenazine,-4.15
C1=CC2CCC1C2,Norbornylene,-2.848
Cc1c(I)c(=O)n(-c2ccccc2)n1C,Iodoantipyrine,-2.594
N#CC(/N=C/c1ccccc1[O-])=C(C#N)/N=C/c1ccccc1[O-].[Ni+2],n/a,-7.766
CO/N=C(\C(=O)N[C@@H]1C(=O)N2C(C(=O)O)=C(CSC(=O)c3ccco3)CS[C@H]12)c1csc(N)n1,Ceftiofur,-4.36
CCCC1CC(=O)C=C(C)C1 (centres undefined),"2-Cyclohexen-1-one, 3-methyl-5-propyl-",-1.773
CCCCC1NC(=O)NC1=O (centres undefined),"5-Butylimidazolidine-2,4-dione",-1.495
O=C(O)C1C2C=CC(C2)C1C(=O)O (centres undefined),"Bicyclo[2.2.1]hept-5-ene-2,3-dicarboxylic acid",-1.711
CCCCCCC(N)C(=O)O (centres undefined),"Octanoic acid, 2-amino-",-0.923
CCOC(=O)CC(=O)OCC,Diethyl propanedioate,-0.82
O=C(O)c1cc2ccccc2cc1O,3-Hydroxy-2-naphthoic acid,-2.439
CC(=O)O[C@@]1(C(C)=O)CC[C@@H]2[C@H]3CCC4=CC(=O)CC[C@@]4(C)[C@@H]3CC[C@]21C,Hydroxyprogesterone acetate,-5.567
CCCCCCCCCCCCSC(C)CC(=O)[C@@H]1[C@@H](C)C=CCC1(C)C (relative stereo),n/a,-8.897
COc1ccc(NC(N)=O)cc1Cl,"Urea, (3-chloro-4-methoxyphenyl)-",-1.83
CC1(C)C(C=CC2=C(Cl)/C(=C/C=C3\N(CCCCS(=O)(=O)[O-])c4ccc5ccccc5c4C3(C)C)CCC2)=[N+](CCCCS(=O)(=O)[O-])c2ccc3ccccc3c21.[NH4+],n/a,-2.671
FC(C(F)(F)F)C(F)(F)Oc1cc(Cl)ccc1Cl (centres undefined),"1,4-Dichloro-2-(1,1,2,3,3,3-hexafluoropropoxy)benzene",-5.018
CC(CCO)CCC=O (centres undefined),6-Hydroxy-4-methylhexanal,-1.073
CCOC(=O)CC(C)CC(C)(C)C (centres undefined),"Ethyl 3,5,5-trimethylhexanoate",-3.823
CCCCCC(CO)Cc1ccccc1 (centres undefined),"Benzenepropanol, .beta.-pentyl-",-3.843
CC1=NN(c2ccccc2)C(=O)CC1,"4,5-Dihydro-6-methyl-2-phenylpyridazin-3(2H)-one",-1.55
O=C(O)CCCC[C@@H]1SC[C@@H]2NC(=O)N[C@@H]21,Biotin,-3.04
Cc1cc(C2CCCCC2)n(O)c(=O)c1,Ciclopirox,-2.167
CCCn1c(=O)[nH]c(=O)c2[nH]cnc21,Enprofylline,-1.534
Nc1[nH]c(=O)ncc1I,5-Iodocytosine,-2.4
Cc1c(Cc2cc(C(C)(C)C)c(O)c(C(C)(C)C)c2)c(C)c(Cc2cc(C(C)(C)C)c(O)c(C(C)(C)C)c2)c(C)c1Cc1cc(C(C)(C)C)c(O)c(C(C)(C)C)c1,Ionox 330,-5.81
O=C([O-])c1ccccc1N=Nc1c(O)ccc2ccccc12.O=C([O-])c1ccccc1N=Nc1c(O)ccc2ccccc12.[Ba+2],Pigment Red 50 barium salt,-6.459
CC(=NO)C(=O)O,2-(Hydroxyimino)propanoic acid,0.942
Oc1cnc2ccccc2n1,2(1H)-Quinoxalinone,-0.951
CC1=CCC(CC#N)C1(C)C (centres undefined),"3-Cyclopentene-1-acetonitrile, 2,2,3-trimethyl-",-2.648
CCCCOCCOCCOC(=O)CCCCC(=O)OCCOCCOCCCC,Bis[2-(2-butoxyethoxy)ethyl] adipate,-2.882
CC1=C(C(=O)O)N2C(=O)C(NC(=O)C(N)c3ccc(O)cc3)C2SC1.O (centres undefined),Cefadroxil monohydrate,-2.98
CCOc1ccccc1OCC,"1,2-Diethoxybenzene",-2.41
O=C(CCCCCCCCCCC(=O)OCCOc1ccc(-c2nc(-c3ccccc3)nc(-c3ccccc3)n2)c(O)c1)OCCOc1ccc(-c2nc(-c3ccccc3)nc(-c3ccccc3)n2)c(O)c1,n/a,-8.383
Cc1cc(C(C)(C)C)c(O)c(C)c1CC#N,"(4-tert-Butyl-3-hydroxy-2,6-dimethylphenyl)acetonitrile",-4.258
Clc1cc(-c2c(Cl)c(Cl)c(Cl)c(Cl)c2Cl)c(Cl)c(Cl)c1Cl,"2,2',3,3',4,4',5,5',6-Nonachlorobiphenyl",-10.27
N=C(N)NC(=O)Cc1c(Cl)cccc1Cl,Guanfacine,-2.82
O=C(O)c1ccccc1C(=O)Nc1ccc(S(=O)(=O)Nc2nccs2)cc1,Phthalylsulfathiazole,-3.227

A selection of 6 entries from above:

{"smiles": "CCCCCC(CO)Cc1ccccc1", "stereo": "centres undefined", "name": "Benzenepropanol, .beta.-pentyl-", "log solubility (log10 mol/L)": "-3.843"}
{"smiles": "CCCCOCCOCCOC(=O)CCCCC(=O)OCCOCCOCCCC", "name": "Bis[2-(2-butoxyethoxy)ethyl] adipate", "log solubility (log10 mol/L)": "-2.882"}
{"smiles": "CC(CCO)CCC=O", "stereo": "centres undefined", "name": "6-Hydroxy-4-methylhexanal", "log solubility (log10 mol/L)": "-1.073"}
{"smiles": "CCCn1c(=O)[nH]c(=O)c2[nH]cnc21", "name": "Enprofylline", "log solubility (log10 mol/L)": "-1.534"}
{"smiles": "CC(C)(O)CCc1ccccc1", "name": "2-Methyl-4-phenylbutan-2-ol", "log solubility (log10 mol/L)": "-1.556"}
{"smiles": "O=C(O)c1ccccc1C(=O)Nc1ccc(S(=O)(=O)Nc2nccs2)cc1", "name": "Phthalylsulfathiazole", "log solubility (log10 mol/L)": "-3.227"}